According to ChEMBL document CHEMBL1126619, “Design of thymidylate synthase inhibitors using protein crystal structures: the synthesis and biological evaluation of a novel class of 5-substituted quinazolinones” (J Med Chem, 1993):

How the values were obtained:
[1] = test system: L1210; experiment: The ratio of IC50 of the inhibitor (assayed in L1210 cells) in presence and absence of thymidine; assay type: functional, Mus musculus
[2] = test system: CCRF-CEM; experiment: Inhibition of human lymphoblastic leukemia (CCRF-CEM) cell growth measured using a modification of the MTT36 colorimetric assay of Mosmann; assay type: functional, cell-based
[3] = test system: L1210; experiment: Inhibition of mouse L1210 (murine leukemia) cell growth measured using a modification of the MTT36 colorimetric assay of Mosmann; assay type: functional, cell-based
[4] = test system: GC3/MTK-; experiment: Inhibition of cellular growth in human adenocarcinoma cell line (GC3/M TK) deficient in thymidine kinase; assay type: functional, cell-based
[5] = Partition coefficient (logP); assay type: physicochemical; settings: octanol/water

SMILES | Thymidine shift [1] | IC50 [2] [µM] | IC50 [3] [µM] | further results
Cc1nc(O)c2c(Sc3ccc(S(=O)(=O)c4ccccc4)cc3)c(C)ccc2n1 | 5.6 | – | – | –
Cc1nc(O)c2c(Sc3ccnnc3)c(C)ccc2n1 | – | 10.5 | – | –
Cc1nc(O)c2c(Sc3ccncc3)cccc2n1 | – | – | 14 | –
COc1cc(Sc2c(C)ccc3nc(C)nc(O)c23)ccn1 | – | 3.8 | 3.1 | –
Cc1nc(O)c2c(Sc3ccnc(C(F)(F)F)c3)c(C)ccc2n1 | – | 8.6 | 8.1 | IC50 [4]: 15 µM
Cc1cc(Sc2c(C)ccc3nc(C)nc(O)c23)ccn1 | >20 | – | – | logP [5]: 2.34
